Measurements published in US20240124486A1, “MACROCYCLIC TLR7 AGONIST, PREPARATION METHOD THEREFOR, PHARMACEUTICAL COMPOSITION AND USE THEREOF” (SHANGHAI VISONPHARMA CO., LTD., priority 2020, published 2024).

By UniProt entry, the sequences of proteins in these tests, tags left out. Residues count along the entry.
UniProt Q9NYK1, 27-1049 limits assumed: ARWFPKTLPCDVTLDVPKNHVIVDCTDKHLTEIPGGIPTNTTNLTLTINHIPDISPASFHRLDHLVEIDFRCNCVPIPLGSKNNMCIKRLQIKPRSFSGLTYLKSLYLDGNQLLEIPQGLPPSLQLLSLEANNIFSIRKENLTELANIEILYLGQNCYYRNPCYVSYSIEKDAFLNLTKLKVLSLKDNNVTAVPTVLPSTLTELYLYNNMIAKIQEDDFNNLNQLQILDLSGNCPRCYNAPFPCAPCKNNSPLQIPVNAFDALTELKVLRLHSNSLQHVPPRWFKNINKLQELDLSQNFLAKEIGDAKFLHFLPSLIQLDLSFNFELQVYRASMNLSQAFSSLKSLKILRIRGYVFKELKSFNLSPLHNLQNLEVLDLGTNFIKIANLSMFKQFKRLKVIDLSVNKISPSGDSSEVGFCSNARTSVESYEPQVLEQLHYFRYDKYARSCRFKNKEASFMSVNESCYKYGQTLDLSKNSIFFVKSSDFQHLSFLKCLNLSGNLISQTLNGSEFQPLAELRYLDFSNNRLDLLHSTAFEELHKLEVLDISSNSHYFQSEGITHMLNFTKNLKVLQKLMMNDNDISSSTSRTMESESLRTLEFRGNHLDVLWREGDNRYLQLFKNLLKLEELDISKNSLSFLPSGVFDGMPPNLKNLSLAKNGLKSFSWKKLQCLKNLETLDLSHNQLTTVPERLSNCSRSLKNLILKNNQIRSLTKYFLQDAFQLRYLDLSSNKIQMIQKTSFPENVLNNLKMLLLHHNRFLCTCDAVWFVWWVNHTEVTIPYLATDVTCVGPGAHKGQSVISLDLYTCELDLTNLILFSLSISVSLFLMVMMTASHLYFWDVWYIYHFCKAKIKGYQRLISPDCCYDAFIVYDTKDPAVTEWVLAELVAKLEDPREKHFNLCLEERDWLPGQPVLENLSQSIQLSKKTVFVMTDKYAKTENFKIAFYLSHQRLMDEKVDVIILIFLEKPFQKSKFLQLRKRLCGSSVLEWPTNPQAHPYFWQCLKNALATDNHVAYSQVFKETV

Each compound was assayed against human TLR7 (Homo sapiens, UniProt Q9NYK1) (assay: Agonistic activity on human TLR7 in HEK-Blue hTLR7 cell line (QUANTI-Blue reporter)). Settings: read-out: EC50 value of the agonistic effect on human TLR7; HEK-Blue hTLR7 cells, 16-22 h incubation, absorption at 630 nm.
Experimental: The TLR7 agonistic activity of the compounds of the invention in HEK-Blue™ hTLR7 cell line with stable expression of human TLR7 were assayed using the following method: • 1. Weighed the test compounds and prepared stock solutions with DMSO (Sigma) at a concentration of 10 mM. […] The highest concentration was 1 mM. • 2. The test compounds and DMSO control were diluted 10-fold in DPBS buffer (Gibco) and then added to a 96-well cell culture plate (Corning) at a volume of 20 μL/well. • 3. HEK-Blue™ hTLR7 cells (Invivogen) were digested with cell separation solution (Gibco), and counted (TC-20 cell counter, Bio-rad). Cells were diluted to 4.4E5/ml using DMEM cell medium (Gibco). Added the cells to a 96-well cell culture plate at a volume of 180 μL/well. The cells were incubated for 16-22 h at 37° C. in a 5% CO2 incubator. • 4. Prepared QUANTI-Blue detection reagent (Invivogen), and added into a new 96-well plate at a volume of 180 μL/well. Twenty μL of cell culture supernatant was transferred from the cell culture plate and added to the 96-well plate and incubated at 37° C. for 1-3 hours. • 5. Neo2 multifunctional microplate reader (Bio-Tek) was used to measure the optical absorption at 630 nm, and the EC50 was calculated by GraphPad Prism.
The agonistic effect of the compounds of the invention on human TLR7 can be determined by the above experiments, and the measured EC50 value is shown in Table 1.

| Compound | EC50 [nM] |
| --- | --- |
| CC(C)(C)N1Cc2c3cc(cc2C1=O)Cn1c(=O)[nH]c2c(N)nc(nc21)NCC/C=C\C3 | 293 |
| CC(C)(C)N1Cc2c3cc(cc2C1=O)Cn1c(=O)[nH]c2c(N)nc(nc21)S(=O)(=O)CC/C=C\C3 | 1 |
| CC(C)(C)N1Cc2c3cc(cc2C1=O)Cn1c(=O)[nH]c2c(N)nc(nc21)S(=O)(=O)CC/C=C/C3 | 2 |

Results, then the compound that gave them:

| EC50 [nM] | Compound |
| --- | --- |
| 64 | CC(C)(C)N1Cc2c3cc(cc2C1=O)Cn1c(=O)[nH]c2c(N)nc(nc21)SCC/C=C/C3 |
| 7 | CC(=O)N1CCc2c3cc(cc2C1)Cn1c(=O)[nH]c2c(N)nc(nc21)OCCCCC3 |
| 1800 | CC(C)(C)N1Cc2c3cc(cc2C1=O)Cn1c(=O)[nH]c2c(N)nc(nc21)NCC/C=C/C3 |
| 2 | Nc1nc2nc3c1[nH]c(=O)n3Cc1cc(c3c(c1)C(=O)N(CC(=O)O)C3)C/C=C/CCO2 |
